Experimental data as given in patent US20250195530A1, “POLQ INHIBITORS” (ASTRAZENECA AB, priority 2022, published 2025).

Sequences of proteins named here, by UniProt entry; tags and fusion partners are left off. Residues count along the entry.
UniProt O75417, 1780-2590: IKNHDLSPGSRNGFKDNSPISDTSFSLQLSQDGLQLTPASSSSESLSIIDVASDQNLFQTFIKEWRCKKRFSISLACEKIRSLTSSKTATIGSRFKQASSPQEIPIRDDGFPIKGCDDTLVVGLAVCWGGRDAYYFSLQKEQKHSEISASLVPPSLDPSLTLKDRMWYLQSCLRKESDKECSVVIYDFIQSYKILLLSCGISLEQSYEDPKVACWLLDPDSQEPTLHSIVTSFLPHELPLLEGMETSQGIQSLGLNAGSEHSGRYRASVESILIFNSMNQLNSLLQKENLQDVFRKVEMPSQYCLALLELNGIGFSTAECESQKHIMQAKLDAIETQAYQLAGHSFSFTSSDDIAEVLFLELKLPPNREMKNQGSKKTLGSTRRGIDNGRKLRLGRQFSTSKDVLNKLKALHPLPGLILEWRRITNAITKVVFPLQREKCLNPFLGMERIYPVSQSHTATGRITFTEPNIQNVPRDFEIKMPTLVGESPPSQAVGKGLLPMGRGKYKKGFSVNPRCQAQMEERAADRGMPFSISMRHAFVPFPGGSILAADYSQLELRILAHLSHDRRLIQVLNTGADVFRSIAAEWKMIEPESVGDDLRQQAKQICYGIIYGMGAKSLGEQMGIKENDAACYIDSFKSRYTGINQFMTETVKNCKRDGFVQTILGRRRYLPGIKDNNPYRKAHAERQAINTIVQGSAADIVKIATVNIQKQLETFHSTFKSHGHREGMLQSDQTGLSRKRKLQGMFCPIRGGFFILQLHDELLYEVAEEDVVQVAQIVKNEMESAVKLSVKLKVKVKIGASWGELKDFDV

Target: isolated polymerase domain (I1780-V2590) of DNA polymerase theta (Polθ) (Homo sapiens (Human), UniProt O75417)
Test: biochemical

Row | SMILES | IC50 [nM]
1 | Cc1ccnc(Cn2c(-c3ccc(OCC4COC4)cc3Cl)nc3c(OC4(C)CC4)ncnc32)c1 [Example T193, 8-(2-chloro-4-(oxetan-3-ylmethoxy)phenyl)-6-(1-methylcyclopropoxy)-9-((4-methylpyridin-2-yl)methyl)-9H-purine] | 25.1
2 | CC(CCOc1ccc(-c2nc3c(OC4(C)CC4)ncnc3n2Cc2cccc(C(F)(F)F)c2)c(Cl)c1)C(=O)O (single isomer, unassigned) [Example T396, 4-(3-chloro-4-(6-(1-methylcyclopropoxy)-9-(3-(trifluoromethyl)benzyl)-9H-purin-8-yl)phenoxy)-2-methylbutanoic acid] | 7.94
3 | Cc1ccnc(Cn2c(-c3ccc(CCNS(C)(=O)=O)cc3Cl)nc3c(OC4(C)CC4)ncnc32)c1 [Example T143, N-(3-chloro-4-(6-(1-methylcyclopropoxy)-9-((4-methylpyridin-2-yl)methyl)-9H-purin-8-yl)phenethyl)methanesulfonamide] | 7.94
4 | CC1(Oc2ncnc3c2nc(-c2ccc(OCCN4C[C@H]5C[C@@H]4CN5)cc2Cl)n3Cc2cc(Cl)ccn2)CC1 [Example T485, 8-(4-(2-((1R,4R)-2,5-diazabicyclo[2.2.1]heptan-2-yl)ethoxy)-2-chlorophenyl)-9-((4-chloropyridin-2-yl)methyl)-6-(1-methylcyclopropoxy)-9H-purine] | 5.01
5 | CC1(Oc2ncnc3c2nc(-c2ccc(OCCCO)cc2Cl)n3Cc2cc(C(F)(F)F)ccn2)CC1 [Example T94, 3-(3-chloro-4-(6-(1-methylcyclopropoxy)-9-((4-(trifluoromethyl)pyridin-2-yl)methyl)-9H-purin-8-yl)phenoxy)propan-1-ol] | 5.01
6 | Cc1ccnc(Cn2c(-c3ccc(OCC(=O)N[C@@H]4CCOC4)cc3Cl)nc3c(OC4(C)CC4)ncnc32)c1 [Example T478, (R)-2-(3-chloro-4-(6-(1-methylcyclopropoxy)-9-((4-methylpyridin-2-yl)methyl)-9H-purin-8-yl)phenoxy)-N-(tetrahydrofuran-3-yl)acetamide] | 7.94
7 | COc1ccc(F)cc1Cn1c(-c2cccc(OCC[C@@H](C)C(=O)O)c2Cl)nc2c(OC3(C)CC3)ncnc21 [Example U78, (R)-4-(2-chloro-3-(9-(5-fluoro-2-methoxybenzyl)-6-(1-methylcyclopropoxy)-9H-purin-8-yl)phenoxy)-2-methylbutanoic acid] | 2
8 | CNC(=O)COc1ccc(-c2nc3c(OC4(C)CC4)ncnc3n2Cc2cc(C)ccn2)c(Cl)c1 [Example T118, 2-(3-chloro-4-(6-(1-methylcyclopropoxy)-9-((4-methylpyridin-2-yl)methyl)-9H-purin-8-yl)phenoxy)-N-methylacetamide] | 5.01
9 | Cc1nnccc1Cn1c(-c2ccc(CC(N)=O)cc2Cl)nc2c(OC3(C)CC3)ncnc21 [Example T17, 2-(3-chloro-4-(6-(1-methylcyclopropoxy)-9-((3-methylpyridazin-4-yl)methyl)-9H-purin-8-yl)phenyl)acetamide] | ≥ 10000
10 | Cc1ccc(Cn2c(-c3ccc(CC(N)=O)cc3Cl)nc3c(OC4(C)CC4)ncnc32)cc1 [Example T100, 2-(3-chloro-4-(9-(4-methylbenzyl)-6-(1-methylcyclopropoxy)-9H-purin-8-yl)phenyl)acetamide] | 10
11 | Cc1ccnc(Cn2c(-c3ccc(C(=O)N4CC[C@@H](C#N)C4)cc3Cl)nc3c(OC4(C)CC4)ncnc32)c1 [Example T405, (R)-1-(3-chloro-4-(6-(1-methylcyclopropoxy)-9-((4-methylpyridin-2-yl)methyl)-9H-purin-8-yl)benzoyl)pyrrolidine-3-carbonitrile] | 25.1
12 | Cc1ccnc(Cn2c(-c3ccc(OC(C)CO)cc3Cl)nc3c(OC4(C)CC4)ncnc32)c1 (single isomer, unassigned) [Example T126, 2-(3-chloro-4-(6-(1-methylcyclopropoxy)-9-((4-methylpyridin-2-yl)methyl)-9H-purin-8-yl)phenoxy)propan-1-ol] | 3.16
13 | Cc1ccnc(Cn2c(-c3ccc(OCC(=O)NC4CC(F)C4)cc3Cl)nc3c(OC4(C)CC4)ncnc32)c1 (stereo not shown) [Example T421, 2-(3-chloro-4-(6-(1-methylcyclopropoxy)-9-((4-methylpyridin-2-yl)methyl)-9H-purin-8-yl)phenoxy)-N-(3-fluorocyclobutyl)acetamide] | 7.94
14 | Cc1cnc(Cn2c(-c3ccc(CC(N)=O)cc3Cl)nc3c(OC4(C)CC4)ncnc32)s1 [Example T4, 2-(3-chloro-4-(6-(1-methylcyclopropoxy)-9-((5-methylthiazol-2-yl)methyl)-9H-purin-8-yl)phenyl)acetamide] | 15.8
15 | COc1ccc(Cl)cc1Cn1c(-c2ccc(OCC(C)CC(=O)O)cc2Cl)nc2c(OC3(C)CC3)ncnc21 (racemic) [Example U42, 4-(3-chloro-4-(9-(5-chloro-2-methoxybenzyl)-6-(1-methylcyclopropoxy)-9H-purin-8-yl)phenoxy)-3-methylbutanoic acid] | 7.94
16 | Cc1ccnc(Cn2c(-c3ccc(CC(=O)N4CC(N5CCC5)C4)cc3Cl)nc3c(OC4(C)CC4)ncnc32)c1 [Example T603, 1-([1,3′-biazetidin]-1′-yl)-2-(3-chloro-4-(6-(1-methylcyclopropoxy)-9-((4-methylpyridin-2-yl)methyl)-9H-purin-8-yl)phenyl)ethan-1-one] | 5.01

Row | SMILES | IC50 [nM]
17 | Cc1ccnc(Cn2c(-c3ccc(OCC(=O)NC[C@H](C)O)cc3Cl)nc3c(OC4(C)CC4)ncnc32)c1 [Example T372, (S)-2-(3-chloro-4-(6-(1-methylcyclopropoxy)-9-((4-methylpyridin-2-yl)methyl)-9H-purin-8-yl)phenoxy)-N-(2-hydroxypropyl)acetamide] | 6.31
18 | CC[C@@H](O)CNC(=O)c1ccc(-c2nc3c(OC4(C)CC4)ncnc3n2Cc2cc(C)ccn2)c(Cl)c1 [Example T365, (R)-3-chloro-N-(2-hydroxybutyl)-4-(6-(1-methylcyclopropoxy)-9-((4-methylpyridin-2-yl)methyl)-9H-purin-8-yl)benzamide] | 10
19 | Cc1cc(OCCCN2CCCC2)ncc1-c1nc2c(OC3(C)CC3)ncnc2n1Cc1ccccc1 [Example G5, 9-benzyl-8-(4-methyl-6-(3-(pyrrolidin-1-yl)propoxy)pyridin-3-yl)-6-(1-methylcyclopropoxy)-9H-purine] | 2.51
20 | CC1(Oc2ncnc3c2nc(-c2cccc(OCCOCC(=O)O)c2Cl)n3Cc2cccc(Cl)c2)CC1 [Example T162, 2-(2-(2-chloro-3-(9-(3-chlorobenzyl)-6-(1-methylcyclopropoxy)-9H-purin-8-yl)phenoxy)ethoxy)acetic acid] | 6.31
21 | COc1ccc(Cl)cc1Cn1c(-c2cccc(OCCCOCC(=O)O)c2Cl)nc2c(OC3(C)CC3)ncnc21 [Example U30, 2-(3-(2-chloro-3-(9-(5-chloro-2-methoxybenzyl)-6-(1-methylcyclopropoxy)-9H-purin-8-yl)phenoxy)propoxy)acetic acid] | 7.94
22 | COc1ccc(C)cc1Cn1c(-c2cccc(OCCC(=O)O)c2Cl)nc2c(OC3(C)CC3)ncnc21 [Example U89, 3-(2-chloro-3-(9-(2-methoxy-5-methylbenzyl)-6-(1-methylcyclopropoxy)-9H-purin-8-yl)phenoxy)propanoic acid] | 5.01
23 | COc1ccc(F)cc1Cn1c(-c2cccc(OCC(C)CC(=O)O)c2Cl)nc2c(OC3(C)CC3)ncnc21 (single isomer, unassigned) [Example U77, 4-(2-chloro-3-(9-(5-fluoro-2-methoxybenzyl)-6-(1-methylcyclopropoxy)-9H-purin-8-yl)phenoxy)-3-methylbutanoic acid] | 3.16
24 | Cc1ccnc(Cn2c(-c3ccc(N4CC(C(N)=O)C4)cc3Cl)nc3c(OC4(C)CC4)ncnc32)c1 [Example T204, 1-(3-chloro-4-(6-(1-methylcyclopropoxy)-9-((4-methylpyridin-2-yl)methyl)-9H-purin-8-yl)phenyl)azetidine-3-carboxamide] | 7.94
25 | Cc1ccnc(Cn2c(-c3ccc(C(=O)N4CCC(F)CC4)cc3Cl)nc3c(OC4(C)CC4)ncnc32)c1 [Example T419, (3-chloro-4-(6-(1-methylcyclopropoxy)-9-((4-methylpyridin-2-yl)methyl)-9H-purin-8-yl)phenyl)(4-fluoropiperidin-1-yl)methanone] | 50.1
26 | COc1cccc(Cn2c(-c3ccc(OCCC(C)C(=O)O)cc3Cl)nc3c(OC4(C)CC4)ncnc32)c1 (racemic) [Example T454, 4-(3-chloro-4-(9-(3-methoxybenzyl)-6-(1-methylcyclopropoxy)-9H-purin-8-yl)phenoxy)-2-methylbutanoic acid] | 3.98
27 | CC(CCOc1ccc(-c2nc3c(OC4(C)CC4)ncnc3n2Cc2cc(F)cc(Cl)c2)c(Cl)c1)C(=O)O (single isomer, unassigned) [Example T273, 4-(3-chloro-4-(9-(3-chloro-5-fluorobenzyl)-6-(1-methylcyclopropoxy)-9H-purin-8-yl)phenoxy)-2-methylbutanoic acid] | 3.16
28 | CC1(Oc2ncnc3c2nc(-c2ccc(CC(N)=O)cc2Cl)n3Cc2ccnc(C(F)(F)F)c2)CC1 [Example T35, 2-(3-chloro-4-(6-(1-methylcyclopropoxy)-9-((2-(trifluoromethyl)pyridin-4-yl)methyl)-9H-purin-8-yl)phenyl)acetamide] | 39.8
29 | Cc1ccnc(Cn2c(-c3ccc(OCCN4CCC4=O)cc3Cl)nc3c(OC4(C)CC4)ncnc32)c1 [Example T313, 1-(2-(3-chloro-4-(6-(1-methylcyclopropoxy)-9-((4-methylpyridin-2-yl)methyl)-9H-purin-8-yl)phenoxy)ethyl)azetidin-2-one] | 5.01
30 | CC1(Oc2ncnc3c2nc(-c2ccc(OCCC(C)(C)C(=O)O)cc2Cl)n3Cc2cccc(Cl)c2)CC1 [Example T435, 4-(3-chloro-4-(9-(3-chlorobenzyl)-6-(1-methylcyclopropoxy)-9H-purin-8-yl)phenoxy)-2,2-dimethylbutanoic acid] | 6.31
31 | CC1(Oc2ncnc3c2nc(-c2ccc(OCCC4(C(=O)O)CC4)cc2Cl)n3Cc2cccc(Cl)c2)CC1 [Example T407, 1-(2-(3-chloro-4-(9-(3-chlorobenzyl)-6-(1-methylcyclopropoxy)-9H-purin-8-yl)phenoxy)ethyl)cyclopropane-1-carboxylic acid] | 10
